From US20100137440A1, “LYSINE RIBOSWITCHES, STRUCTURE-BASED COMPOUND DESIGN WITH LYSINE RIBOSWITCHES, AND METHODS AND COMPOSITIONS FOR USE OF AND WITH LYSINE RIBOSWITCHES” (Yale University, priority 2006, published 2010)

Assays:
[1] = system: lysC riboswitch with the M1 or M2 mutation upstream of β-galactosidase reporter; experiment: Reporter gene (β-galactosidase) expression assay, M1 or M2 riboswitch constructs; assay type: cell-based, B. subtilis; conditions: high compound concentrations (lysine as high as 5 mM)
[2] = system: 179-nucleotide receptor domain (179 lysC) of the lysC lysine riboswitch; experiment: In-line probing assay, ligand binding to 179 lysC; parameters: species or system B. subtilis; conditions: in vitro

NCCCC[C@H](N)C(=O)O [lysine, L-lysine]
β-galactosidase expression from M1 or M2 constructs [1]: derepress gene expression

CC(=O)NCCCC[C@H](N)C(=O)O
binding to 179 lysC / lysine aptamer (in words) [2]: no binding is observed
